Test results taken from ChEMBL document CHEMBL5032539, “Indole-Containing Amidinohydrazones as Nonpeptide, Dual RXFP3/4 Agonists: Synthesis, Structure-Activity Relationship, and Molecular Modeling Studies” (J Med Chem, 2021).

Assays:
[1] = biological target: T1, Relaxin-3 receptor 1 (Homo sapiens, UniProt Q9NSD7)
T1 sequence (Q9NSD7 whole entry): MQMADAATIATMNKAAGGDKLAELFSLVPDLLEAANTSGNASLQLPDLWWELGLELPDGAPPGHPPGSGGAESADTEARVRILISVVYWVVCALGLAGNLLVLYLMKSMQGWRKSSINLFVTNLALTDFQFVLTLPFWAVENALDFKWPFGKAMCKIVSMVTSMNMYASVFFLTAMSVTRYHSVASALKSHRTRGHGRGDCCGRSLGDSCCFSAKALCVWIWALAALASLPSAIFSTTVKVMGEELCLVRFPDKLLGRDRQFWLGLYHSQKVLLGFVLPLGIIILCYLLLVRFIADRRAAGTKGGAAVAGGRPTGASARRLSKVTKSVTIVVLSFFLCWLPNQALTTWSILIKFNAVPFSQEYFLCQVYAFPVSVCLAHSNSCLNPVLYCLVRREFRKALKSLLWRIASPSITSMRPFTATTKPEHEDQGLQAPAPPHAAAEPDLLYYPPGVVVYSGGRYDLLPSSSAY

[2] = biological target: T1, Relaxin-3 receptor 1; assay: biochemical

In the case of `COc1cc(C)c2[nH]cc(/C=N/NC(=N)NCCc3ccc(Cl)c(Cl)c3)c2c1`, the EC50 [1] is reported as 306 nM and the Ki [2] is reported as 2510 nM.
